# Measurements: PMC5427847, “Epilepsy-associated GRIN2A mutations reduce NMDA receptor trafficking and agonist potency – molecular profiling and functional rescue” (Scientific Reports, 2017)
# Sequences of proteins named here, by UniProt entry; tags and fusion partners are left off. Residues count along the entry.
# UniProt Q12879, 23-1464 G483R: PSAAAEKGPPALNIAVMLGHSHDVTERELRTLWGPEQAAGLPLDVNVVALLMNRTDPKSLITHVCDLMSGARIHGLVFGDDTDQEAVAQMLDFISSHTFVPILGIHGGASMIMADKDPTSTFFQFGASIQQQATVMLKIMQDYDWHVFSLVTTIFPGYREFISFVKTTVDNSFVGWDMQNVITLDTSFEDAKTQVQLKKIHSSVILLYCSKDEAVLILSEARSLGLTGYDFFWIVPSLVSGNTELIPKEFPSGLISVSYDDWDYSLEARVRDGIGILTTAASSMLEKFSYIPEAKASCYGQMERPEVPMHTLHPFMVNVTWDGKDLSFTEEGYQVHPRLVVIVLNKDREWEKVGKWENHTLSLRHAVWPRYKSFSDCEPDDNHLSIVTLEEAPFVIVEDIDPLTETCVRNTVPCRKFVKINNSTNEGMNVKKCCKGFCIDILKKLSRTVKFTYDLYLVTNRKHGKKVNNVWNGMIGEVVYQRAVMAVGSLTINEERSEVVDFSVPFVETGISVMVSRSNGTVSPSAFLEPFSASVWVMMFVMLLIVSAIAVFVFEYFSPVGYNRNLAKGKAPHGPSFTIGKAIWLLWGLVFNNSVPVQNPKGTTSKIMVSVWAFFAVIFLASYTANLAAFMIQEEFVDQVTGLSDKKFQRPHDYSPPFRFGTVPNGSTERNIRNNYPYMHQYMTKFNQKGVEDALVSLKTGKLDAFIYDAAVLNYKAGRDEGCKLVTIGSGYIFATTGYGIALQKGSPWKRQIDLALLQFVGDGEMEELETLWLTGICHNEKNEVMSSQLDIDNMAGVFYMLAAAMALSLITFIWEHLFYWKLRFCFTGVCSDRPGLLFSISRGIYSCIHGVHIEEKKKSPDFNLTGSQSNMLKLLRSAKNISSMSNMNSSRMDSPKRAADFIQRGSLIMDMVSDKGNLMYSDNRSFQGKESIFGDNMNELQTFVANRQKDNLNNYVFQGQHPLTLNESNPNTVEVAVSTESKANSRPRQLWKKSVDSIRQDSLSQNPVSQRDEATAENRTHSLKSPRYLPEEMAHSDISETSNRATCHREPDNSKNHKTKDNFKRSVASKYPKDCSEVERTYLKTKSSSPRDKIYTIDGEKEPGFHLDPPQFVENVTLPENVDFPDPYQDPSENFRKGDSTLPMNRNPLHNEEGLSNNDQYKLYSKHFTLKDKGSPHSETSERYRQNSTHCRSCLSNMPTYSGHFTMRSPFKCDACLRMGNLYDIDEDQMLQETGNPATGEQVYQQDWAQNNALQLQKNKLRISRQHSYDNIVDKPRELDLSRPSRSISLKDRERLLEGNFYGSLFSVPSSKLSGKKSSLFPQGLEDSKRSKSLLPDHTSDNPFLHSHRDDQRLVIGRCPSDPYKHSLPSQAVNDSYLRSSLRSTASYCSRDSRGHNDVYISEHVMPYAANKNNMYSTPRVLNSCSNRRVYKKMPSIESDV
# UniProt Q12879, 23-1464 P79R: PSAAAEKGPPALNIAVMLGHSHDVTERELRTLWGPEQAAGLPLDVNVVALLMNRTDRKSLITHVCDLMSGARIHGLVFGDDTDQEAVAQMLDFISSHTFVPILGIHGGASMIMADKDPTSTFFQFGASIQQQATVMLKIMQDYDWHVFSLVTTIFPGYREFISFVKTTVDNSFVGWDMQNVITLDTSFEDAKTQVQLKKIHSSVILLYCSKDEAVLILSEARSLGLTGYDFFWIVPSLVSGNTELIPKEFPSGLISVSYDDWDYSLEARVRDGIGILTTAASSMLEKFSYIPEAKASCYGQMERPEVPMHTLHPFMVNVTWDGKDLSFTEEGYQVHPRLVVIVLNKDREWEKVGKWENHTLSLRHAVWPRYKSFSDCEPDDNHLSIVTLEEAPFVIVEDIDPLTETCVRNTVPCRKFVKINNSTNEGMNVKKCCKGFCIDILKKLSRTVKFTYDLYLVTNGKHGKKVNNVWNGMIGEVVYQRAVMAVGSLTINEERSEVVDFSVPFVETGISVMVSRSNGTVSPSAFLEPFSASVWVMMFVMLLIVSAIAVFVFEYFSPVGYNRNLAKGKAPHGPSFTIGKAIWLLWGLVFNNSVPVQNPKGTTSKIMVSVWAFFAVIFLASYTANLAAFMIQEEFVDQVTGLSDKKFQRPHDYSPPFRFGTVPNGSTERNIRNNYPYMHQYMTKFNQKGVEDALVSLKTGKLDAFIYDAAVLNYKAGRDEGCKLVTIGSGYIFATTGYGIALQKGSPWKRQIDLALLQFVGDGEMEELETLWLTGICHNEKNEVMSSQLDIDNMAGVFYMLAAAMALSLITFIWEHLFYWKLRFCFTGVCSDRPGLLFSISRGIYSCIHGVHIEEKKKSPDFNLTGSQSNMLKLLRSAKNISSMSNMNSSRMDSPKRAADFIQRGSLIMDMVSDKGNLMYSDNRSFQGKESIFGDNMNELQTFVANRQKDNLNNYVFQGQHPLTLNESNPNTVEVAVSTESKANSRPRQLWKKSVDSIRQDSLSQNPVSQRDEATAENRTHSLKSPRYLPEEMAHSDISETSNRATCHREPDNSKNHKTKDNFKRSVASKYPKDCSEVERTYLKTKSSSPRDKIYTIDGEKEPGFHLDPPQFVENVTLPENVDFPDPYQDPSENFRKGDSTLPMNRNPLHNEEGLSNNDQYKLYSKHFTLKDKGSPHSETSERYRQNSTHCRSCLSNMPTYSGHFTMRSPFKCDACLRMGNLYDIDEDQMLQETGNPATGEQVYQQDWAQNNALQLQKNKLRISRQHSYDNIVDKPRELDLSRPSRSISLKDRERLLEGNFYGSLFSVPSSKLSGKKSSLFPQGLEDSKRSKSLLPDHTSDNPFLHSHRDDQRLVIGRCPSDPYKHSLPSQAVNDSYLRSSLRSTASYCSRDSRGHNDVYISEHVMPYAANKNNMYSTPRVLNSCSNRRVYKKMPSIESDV
# UniProt Q12879, 23-1464 M705V: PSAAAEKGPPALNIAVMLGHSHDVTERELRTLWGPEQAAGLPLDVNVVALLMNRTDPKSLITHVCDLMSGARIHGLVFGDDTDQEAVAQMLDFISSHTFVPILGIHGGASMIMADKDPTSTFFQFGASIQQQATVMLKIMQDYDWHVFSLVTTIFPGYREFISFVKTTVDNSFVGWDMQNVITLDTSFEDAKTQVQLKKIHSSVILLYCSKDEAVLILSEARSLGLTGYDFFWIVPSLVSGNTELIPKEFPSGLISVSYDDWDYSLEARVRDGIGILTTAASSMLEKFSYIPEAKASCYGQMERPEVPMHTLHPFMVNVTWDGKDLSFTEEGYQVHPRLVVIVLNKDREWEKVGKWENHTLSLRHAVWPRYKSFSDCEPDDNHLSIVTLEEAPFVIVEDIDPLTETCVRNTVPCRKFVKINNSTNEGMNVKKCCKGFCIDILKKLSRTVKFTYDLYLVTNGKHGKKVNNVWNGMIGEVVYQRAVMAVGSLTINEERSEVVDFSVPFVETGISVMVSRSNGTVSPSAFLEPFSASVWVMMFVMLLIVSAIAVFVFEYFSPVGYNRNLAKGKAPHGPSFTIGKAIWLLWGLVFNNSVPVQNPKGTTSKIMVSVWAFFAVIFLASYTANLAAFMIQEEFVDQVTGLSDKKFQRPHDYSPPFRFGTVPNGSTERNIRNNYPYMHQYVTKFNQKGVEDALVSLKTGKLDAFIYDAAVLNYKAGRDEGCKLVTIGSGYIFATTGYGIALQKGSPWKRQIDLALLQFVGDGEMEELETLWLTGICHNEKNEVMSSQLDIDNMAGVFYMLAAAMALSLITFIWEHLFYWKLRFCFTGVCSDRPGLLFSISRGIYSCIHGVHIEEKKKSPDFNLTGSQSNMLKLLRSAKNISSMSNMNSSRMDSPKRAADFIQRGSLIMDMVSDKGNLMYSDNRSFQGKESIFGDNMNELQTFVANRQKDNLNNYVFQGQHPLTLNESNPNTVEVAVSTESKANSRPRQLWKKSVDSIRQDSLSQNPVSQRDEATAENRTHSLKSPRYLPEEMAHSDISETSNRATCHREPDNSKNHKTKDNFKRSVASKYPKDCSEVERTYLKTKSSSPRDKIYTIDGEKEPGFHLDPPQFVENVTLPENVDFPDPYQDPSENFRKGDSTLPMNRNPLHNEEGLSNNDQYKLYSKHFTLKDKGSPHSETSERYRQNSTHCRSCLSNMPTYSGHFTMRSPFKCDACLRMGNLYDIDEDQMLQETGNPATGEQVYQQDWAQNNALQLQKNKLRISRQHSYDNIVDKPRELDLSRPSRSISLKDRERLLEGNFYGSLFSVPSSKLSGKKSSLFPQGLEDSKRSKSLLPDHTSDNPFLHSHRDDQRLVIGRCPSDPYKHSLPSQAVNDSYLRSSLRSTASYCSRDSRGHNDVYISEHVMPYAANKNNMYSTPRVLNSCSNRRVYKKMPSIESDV
# UniProt Q12879, 23-1464 D731N: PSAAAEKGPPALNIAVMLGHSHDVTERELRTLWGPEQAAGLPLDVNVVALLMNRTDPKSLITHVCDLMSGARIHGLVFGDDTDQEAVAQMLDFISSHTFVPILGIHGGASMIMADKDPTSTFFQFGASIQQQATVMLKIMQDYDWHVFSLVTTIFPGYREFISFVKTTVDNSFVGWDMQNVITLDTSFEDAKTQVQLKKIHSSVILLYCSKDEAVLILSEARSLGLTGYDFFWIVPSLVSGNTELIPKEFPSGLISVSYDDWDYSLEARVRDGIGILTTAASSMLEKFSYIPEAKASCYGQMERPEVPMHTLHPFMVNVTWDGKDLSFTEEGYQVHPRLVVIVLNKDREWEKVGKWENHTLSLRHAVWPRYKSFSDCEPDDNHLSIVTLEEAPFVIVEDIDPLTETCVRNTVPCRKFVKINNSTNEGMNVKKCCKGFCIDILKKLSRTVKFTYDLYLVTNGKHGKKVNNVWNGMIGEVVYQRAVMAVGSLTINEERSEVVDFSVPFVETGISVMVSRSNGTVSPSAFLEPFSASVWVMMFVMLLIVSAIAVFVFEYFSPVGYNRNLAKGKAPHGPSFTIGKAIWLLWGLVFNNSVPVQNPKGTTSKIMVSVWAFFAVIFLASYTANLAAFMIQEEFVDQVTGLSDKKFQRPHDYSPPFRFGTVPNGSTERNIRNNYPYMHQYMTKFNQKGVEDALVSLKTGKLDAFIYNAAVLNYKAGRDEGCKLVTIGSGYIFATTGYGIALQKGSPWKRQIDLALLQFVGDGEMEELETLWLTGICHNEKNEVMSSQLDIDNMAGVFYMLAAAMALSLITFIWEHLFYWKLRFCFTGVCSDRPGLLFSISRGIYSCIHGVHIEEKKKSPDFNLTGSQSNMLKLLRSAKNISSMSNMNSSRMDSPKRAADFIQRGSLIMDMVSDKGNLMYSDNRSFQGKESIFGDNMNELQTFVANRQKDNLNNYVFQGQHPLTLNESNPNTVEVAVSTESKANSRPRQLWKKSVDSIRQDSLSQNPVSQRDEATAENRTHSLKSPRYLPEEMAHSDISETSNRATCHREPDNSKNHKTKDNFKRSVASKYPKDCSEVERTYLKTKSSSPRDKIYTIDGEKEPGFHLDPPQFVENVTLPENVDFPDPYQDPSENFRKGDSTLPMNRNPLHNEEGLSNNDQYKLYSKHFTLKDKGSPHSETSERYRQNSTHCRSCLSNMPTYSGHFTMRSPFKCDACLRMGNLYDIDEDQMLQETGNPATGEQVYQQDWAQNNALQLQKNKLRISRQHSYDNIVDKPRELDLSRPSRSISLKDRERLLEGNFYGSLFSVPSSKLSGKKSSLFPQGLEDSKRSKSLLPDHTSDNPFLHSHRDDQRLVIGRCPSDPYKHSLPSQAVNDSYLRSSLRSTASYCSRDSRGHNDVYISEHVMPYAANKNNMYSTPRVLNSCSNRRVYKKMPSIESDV
# What was measured:
# Assay type in all cases: cell-based
# [1] = target: T1, G483R GluN2A (NMDAR, co-transfected with GRIN1) (Homo sapiens, UniProt Q05586+Q12879, G483R); assay: Single-cell calcium-flux imaging, HEK-293 transfected with GRIN1 and G483R GRIN2A; settings: 100 µM glutamate + 30 µM glycine, relative to cells responding to 100 µM MgATP, not significant vs WT
# T1 construct: expressed in transfected cells; host or cells: HEK-293
# From the text: (§1) Transfection with GRIN1 is presumed in the figure legends.
# (§2) This compound is subsequently referred to as the PAM.
# [2] = target: T2, P79R GluN2A (NMDAR, co-transfected with GRIN1) (Homo sapiens, UniProt Q05586+Q12879, P79R); assay: Single-cell calcium-flux imaging, HEK-293 transfected with GRIN1 and P79R GRIN2A; settings: 100 µM glutamate + 30 µM glycine, relative to cells responding to 100 µM MgATP, not significant vs WT
# T2 construct: expressed in transfected cells; host or cells: HEK-293
# From the text: as §1, §2
# [3] = target: T3, M705V GluN2A (NMDAR, co-transfected with GRIN1) (Homo sapiens, UniProt Q05586+Q12879, M705V); assay: Single-cell calcium-flux imaging, HEK-293 transfected with GRIN1 and M705V GRIN2A; settings: 100 µM glutamate + 30 µM glycine, relative to cells responding to 100 µM MgATP, p < 0.01 vs WT
# T3 construct: expressed in transfected cells; host or cells: HEK-293
# From the text: as §1, §2
# [4] = target: T1, G483R GluN2A (NMDAR, co-transfected with GRIN1); assay: Whole-cell patch clamp recordings of HEK cells transfected with G483R-GRIN2A and GRIN1; settings: holding potential −60 mV, glutamate 30 nM to 30 µM co-applied with 30 µM glycine, n = 3
# [5] = target: T4, D731N GluN2A (NMDAR, co-transfected with GRIN1) (Homo sapiens, UniProt Q05586+Q12879, D731N); assay: Single-cell calcium-flux imaging, HEK-293 transfected with GRIN1 and D731N GRIN2A; settings: 100 µM glutamate + 30 µM glycine, relative to cells responding to 100 µM MgATP
# T4 construct: expressed in transfected cells; host or cells: HEK-293
# From the text: as §1, §2
# [6] = target: T5, C436R GluN2A (NMDAR, co-transfected with GRIN1) (Homo sapiens, UniProt Q05586+Q12879, C436R); assay: Single-cell calcium-flux imaging, HEK-293 transfected with GRIN1 and C436R GRIN2A; settings: 100 µM glutamate + 30 µM glycine, relative to cells responding to 100 µM MgATP
# T5 construct: expressed in transfected cells; host or cells: HEK-293
# From the text: as §1, §2
# [7] = target: T6, C231Y GluN2A (NMDAR, co-transfected with GRIN1) (Homo sapiens, UniProt Q05586+Q12879, C231Y); assay: Single-cell calcium-flux imaging, HEK-293 transfected with GRIN1 and C231Y GRIN2A; settings: 100 µM glutamate + 30 µM glycine, relative to cells responding to 100 µM MgATP, p < 0.001 vs WT
# T6 construct: expressed in transfected cells; host or cells: HEK-293
# From the text: as §1, §2
# [8] = target: T7, WT GluN2A (NMDAR, co-transfected with GRIN1) (Homo sapiens, UniProt Q05586+Q12879); assay: Single-cell calcium-flux imaging, HEK-293 transiently transfected with GRIN1 and WT GRIN2A; settings: 100 µM glutamate + 30 µM glycine, relative to cells responding to 100 µM MgATP, ± SEM
# T7 construct: expressed in transfected cells; host or cells: HEK-293
# From the text: as §1, §2
structure (smiles),measurement,setting,value
"N[C@@H](CCC(=O)O)C(=O)O [Glutamate, glutamate]",Percentage of HEK cells responding to maximal glutamate,[1],61%
same,Percentage of HEK cells responding to maximal glutamate,[2],75%
same,Percentage of HEK cells responding to maximal glutamate,[3],49%
same,Glutamate concentration response in patch clamp compared with calcium-flux imaging,[4],very similar results to the calcium-flux imaging
same,Percentage of HEK cells responding to maximal glutamate,[5],no response
same,Percentage of HEK cells responding to maximal glutamate,[6],no response
same,Percentage of HEK cells responding to maximal glutamate,[7],18%
same,Percentage of HEK cells responding to maximal glutamate,[8],81%
